An excerpt weighted towards active compounds, which were near 1.8% of everything screened.
RAD52 anneal inh: blocks human RAD52 DNA annealing. P43351. recombinant RAD52 DNA annealing, FRET fluorescence. inhibition, % at 18.7 µM. hit rate 0.46% among 360,000. AID 651710;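 active = every replicate showing at least 50% inhibition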
E-selectin induc: induces E-selectin expression in human endothelial cells; P16581; HUVEC E-selectin immunofluorescence imaging; normalized: neutral wells 0, TNF-alpha wells 100; activation, % at 7.58 µM; hit rate 0.37% among 260,000;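 active = mean E-selectin-positive cell signal at least 10% of the positive control, reached in at least 60% of replicates, without over 20% cell loss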
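System: HUVEC / Compound: single concentration / Signal: immunofluorescence imaging / Read-out: percent E-selectin-positive cells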
MLL AF4-AF9 inh: inhibitors of human MLL-AF4/AF9 interaction | P42568 | AlphaScreen, biotin-AF4 peptide binding to FLAG-AF9 | inhibition, % at 10 µM | hit rate 0.47% among 350,000;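 active = every replicate reaching a set inhibition limit, whatever the replicate mean, cut at about 25% in these data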;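 also: 0% = plate neutral control median and 100% = total signal loss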
SIRT5 block: sirtuin-5 (human) deacylase inhibition. Q9NXA8. Purified SirT5, succinyl-peptide AMC, trypsin-coupled fluorescence. inhibition, % at 15 µM. hit rate 1.1% among 330,000. AID 652115; in the data active = inhibition above about 15%
RAD54 inh: inhibitors of human RAD54 branch migration. RAD54 Holliday junction branch migration, FAM/BHQ fluorescence. inhibition, % at 10.4 µM. hit rate 0.14% among 360,000. AID 602329;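 active = mean normalized replicate activity at least 40 and at least half of replicates scoring 40 or more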;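 also: 0% = median of neutral control wells and 100% = median of positive control wells; inhibitors cause a drop in the FAM fluorescence signal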
UUG fidelity: modulators of yeast start codon fidelity, primary screen, whole organism, S. cerevisiae, single point, plate reader; S. cerevisiae UUG-firefly luciferase reporter, luminescence/redox ratio; activity score, % at 18.7 µM; actives 0.13% (n = 350,000);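 active means replicate mean at a twofold rise or more, about +100% in these data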;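 further: firefly luciferase made from a UUG start codon reports start codon fidelity; reporter light over untreated wells divided by growth signal over untreated wells; some hits fall short of that in this replicate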
Active calls of the source: *; . = no result.

| structure | MLL AF4-AF9 inh | E-selectin induc | UUG fidelity | RAD52 anneal inh | RAD54 inh | SIRT5 block |
| --- | --- | --- | --- | --- | --- | --- |
| C[C@H](CO)N1C[C@H](C)[C@H](CN(C)C(=O)CN(C)C)Oc2cc(C#Cc3ccc(F)cc3)ccc2S1(=O)=O | 20 | 0 | 14 | 60* | 13 | -1 |
| C[C@@H]1CN([C@H](C)CO)S(=O)(=O)c2ccc(C#Cc3ccc(F)cc3)cc2O[C@H]1CN(C)C | 11 | 0 | -2 | 35 | 7 | -3 |
| C[C@@H]1CN([C@H](C)CO)S(=O)(=O)c2ccc(C#Cc3ccc(F)cc3)cc2O[C@@H]1CN(C)C(=O)CN(C)C | 15 | 0 | 23 | 65* | 5 | 1 |
| C[C@H]1CN([C@@H](C)CO)S(=O)(=O)c2ccc(C#Cc3ccc(F)cc3)cc2O[C@@H]1CN(C)C(=O)CN(C)C | 19 | 0 | 17 | 65* | 7 | -2 |
| C[C@H](CO)N1C[C@H](C)[C@H](CN(C)Cc2ccc3c(c2)OCO3)OCCCC[C@H](C)Oc2ccc(NS(=O)(=O)c3ccc(F)cc3)cc2C1=O | 6 | . | 15 | 22 | -3 | 3 |
| COc1ccc2c3c([nH]c2c1)[C@H](CO)N(C(=O)C1CCCC1)CC31CN(C(=O)c2ccncc2)C1 | 1 | 0 | . | 3 | . | 1 |
| COc1ccc(N2CCN(C(=O)CN(C)S(=O)(=O)c3cc(C)ccc3OC)CC2)cc1 | 4 | 1 | 8 | -22 | 2 | 19* |
| CC(=O)Nc1ccc2c(c1)C(=O)N(C)[C@H]1CC[C@H](CC(=O)NCc3ccccc3)O[C@H]1CO2 | 3 | 0 | -7 | -2 | 11 | 0 |
| CCOc1ccc(NC(=O)CSc2ccc3nnc(-c4ccccn4)n3n2)cc1 | -1 | 0 | -34 | -34 | 9 | 18* |
| COc1ccc(S(=O)(=O)N(C)C[C@H]2Oc3c(NC(=O)c4ccc(-c5nccs5)cc4)cccc3C(=O)N([C@@H](C)CO)C[C@@H]2C)cc1 | -1 | . | 3 | 4 | 3 | -1 |
| C[C@@H]1CN([C@H](C)CO)C(=O)c2cc(-c3ccccc3F)cnc2O[C@@H]1CN(C)C(=O)C1CC1 | 0 | 0 | 8 | 0 | 8 | 2 |
| CSc1ccc(/C=N/N2CCN(C)CC2)cc1 | 8 | 0 | -17 | -4 | 3 | -7 |
| CN1CCN(/N=C/c2ccc(-c3ccccc3)cc2)CC1 | 35* | . | -15 | -3 | 1 | -5 |
| CN1CCN(/N=C/c2c3ccccc3c(Cl)c3ccccc23)CC1 | 25* | 0 | . | 6 | . | -1 |
| C=CCN1CCc2cc(O)c(O)cc2C(c2ccccc2)C1 (stereo not given) | 5 | 1 | -5 | 4 | -1 | -3 |
| C=CCN1CCc2c(cc(O)c(O)c2Cl)C(c2ccccc2)C1 (stereo not given) | 52* | 0 | -29 | -5 | 9 | 1 |
| CCCC#Cc1ccc([C@H]2[C@@H](CO)N(C(=O)C3CCCC3)[C@H]2C#N)cc1 | -3 | 1 | 8 | 4 | -3 | 2 |
| Cc1ccc(S(=O)(=O)N2CCC(C(=O)N3CCC(C(=O)NCC4CCCO4)CC3)CC2)cc1 (stereo not given) | -2 | . | 28 | -12 | 4 | 0 |
| CC1CCN(S(=O)(=O)N2CCC(C(=O)N3CCC(N(C)CC4CCCO4)CC3)CC2)CC1 (stereo not given) | -6 | . | 8 | -4 | 0 | 18* |
| COc1ccc(OC)c(NC(=O)C2CCN(C(=O)c3cccs3)CC2)c1 | -2 | -7 | . | -16 | . | 22* |
| COc1ccc(OC)c(NC(=O)C2CCCC2)c1 | . | . | -16 | . | -12 | . |
| COc1ccc(-c2nc(-c3cccc(C)c3)no2)cc1OC | -2 | . | -17 | -8 | 2 | 17* |
| COc1cc(-c2nc(-c3cccc(C)c3)no2)cc(OC)c1OC | . | . | -2 | . | -10 | . |
| CCCCCCc1ccc(OCC(=O)OC)cc1OCC(=O)OC | -22 | . | . | -18 | . | 23* |
| COCC(=O)N1CCC2CC1c1cc(Cl)ccc12 (stereo not given) | 0 | 0 | -11 | -15 | -17 | 22* |
| COc1ccc(C#Cc2cnc3c(c2)C(=O)N([C@H](C)CO)C[C@@H](C)[C@@H](CN(C)CC2CC2)O3)cc1 | . | 1 | . | . | . | . |
| CCOc1ccc(-n2c(=S)sc3c(=O)n(-c4ccc(F)cc4)c(SCC(=O)O)nc32)cc1 | 3 | 0 | -17 | -15 | -16 | 29* |
| COc1ccccc1-n1c(SCC(=O)O)nc2c(sc(=S)n2-c2ccccc2C)c1=O | -2 | 43* | -18 | -13 | 5 | 3 |
| O=C(COc1ccccc1)NCC(=O)N/N=C/C=C/c1ccccc1 | 2 | -3 | . | -1 | . | 20* |
| COc1ccc(C(=O)NCC(=O)N/N=C/c2c(C)[nH]c3ccccc23)cc1 | -1 | . | -9 | -6 | -14 | -2 |

Four entries from above, as labelled records.
CCCC#Cc1ccc([C@H]2[C@@H](CO)N(C(=O)C3CCCC3)[C@H]2C#N)cc1
  MLL AF4-AF9 inh: -3 | E-selectin induc: 1 | UUG fidelity: 8 | RAD52 anneal inh: 4 | RAD54 inh: -3 | SIRT5 block: 2
Cc1ccc(S(=O)(=O)N2CCC(C(=O)N3CCC(C(=O)NCC4CCCO4)CC3)CC2)cc1 (stereo not given)
  MLL AF4-AF9 inh: -2 | E-selectin induc: . | UUG fidelity: 28 | RAD52 anneal inh: -12 | RAD54 inh: 4 | SIRT5 block: 0
CC1CCN(S(=O)(=O)N2CCC(C(=O)N3CCC(N(C)CC4CCCO4)CC3)CC2)CC1 (stereo not given)
  MLL AF4-AF9 inh: -6 | E-selectin induc: . | UUG fidelity: 8 | RAD52 anneal inh: -4 | RAD54 inh: 0 | SIRT5 block: 18*
COc1ccc(OC)c(NC(=O)C2CCN(C(=O)c3cccs3)CC2)c1
  MLL AF4-AF9 inh: -2 | E-selectin induc: -7 | UUG fidelity: . | RAD52 anneal inh: -16 | RAD54 inh: . | SIRT5 block: 22*

More entries.
| structure | MLL AF4-AF9 inh | E-selectin induc | UUG fidelity | RAD52 anneal inh | RAD54 inh | SIRT5 block |
| --- | --- | --- | --- | --- | --- | --- |
| Cc1[nH]c2ccccc2c1/C=N/NC(=O)CNC(=O)COc1ccccc1 | 0 | . | -21 | 1 | -5 | 113* |
| Cc1[nH]c2ccccc2c1/C=N/NC(=O)c1cccc([N+](=O)[O-])c1 | -2 | 57* | . | -3 | . | 0 |
| Cc1noc(C)c1NC(=O)N(C)C[C@H]1Oc2ccc(NC(=O)Cc3cn(C)c4ccccc34)cc2C(=O)N([C@@H](C)CO)C[C@H]1C | -9 | . | 7 | -12 | -45 | 10 |
| Cc1noc(C)c1NC(=O)N(C)C[C@@H]1OCCCC[C@H](C)Oc2ccc(NC(=O)c3ccncc3)cc2C(=O)N([C@@H](C)CO)C[C@@H]1C | -4 | 0 | -3 | -9 | 2 | -2 |
| Cc1noc(C)c1NC(=O)N(C)C[C@H]1Oc2ccc(NC(=O)c3ccncc3)cc2C(=O)N([C@H](C)CO)C[C@H]1C | -1 | 348* | -23 | 0 | 1 | -1 |
| Cc1noc(C)c1NC(=O)N(C)C[C@@H]1Oc2ccc(NC(=O)c3ccncc3)cc2C(=O)N([C@H](C)CO)C[C@@H]1C | 0 | 421* | -26 | -5 | 0 | 0 |
| Cc1noc(C)c1NC(=O)N(C)C[C@H]1OCCCC[C@H](C)Oc2ccc(NC(=O)c3ccncc3)cc2C(=O)N([C@@H](C)CO)C[C@@H]1C | -2 | 0 | 2 | -19 | 6 | -2 |
| COc1ccc(S(=O)(=O)Nc2ccc3c(c2)[C@H]2C[C@H](CC(=O)O)O[C@@H](CO)[C@H]2O3)cc1 | -2 | 0 | -4 | -5 | 7 | 1 |
| O=C(Cc1ccncc1)NCC[C@H]1CC[C@H](NC(=O)C2CCC2)[C@H](CO)O1 | -3 | -1 | . | -25 | -14 | 2 |
| O=C(O)c1ccc(NC2=C/C(=N/S(=O)(=O)c3cccs3)c3ccccc3C2=O)cc1 | 13 | 0 | -32 | -6 | -6 | 20* |
| O=C(O)c1ccc(NC2=C/C(=N/S(=O)(=O)c3ccccc3)c3ccccc3C2=O)cc1 | 14 | . | . | -4 | . | 41* |
| O=C1C(Nc2ccc(O)cc2)=C/C(=N/S(=O)(=O)c2cccs2)c2ccccc21 | 63* | . | . | -9 | . | -4 |
